The source of these data is ChEMBL document CHEMBL1145259, “Arylacetamide kappa opioid receptor agonists with reduced cytochrome P450 2D6 inhibitory activity” (Bioorg Med Chem Lett, 2005).

Amino acid sequences for entries named in this document (tags omitted).
UniProt P41143, whole entry, looked up: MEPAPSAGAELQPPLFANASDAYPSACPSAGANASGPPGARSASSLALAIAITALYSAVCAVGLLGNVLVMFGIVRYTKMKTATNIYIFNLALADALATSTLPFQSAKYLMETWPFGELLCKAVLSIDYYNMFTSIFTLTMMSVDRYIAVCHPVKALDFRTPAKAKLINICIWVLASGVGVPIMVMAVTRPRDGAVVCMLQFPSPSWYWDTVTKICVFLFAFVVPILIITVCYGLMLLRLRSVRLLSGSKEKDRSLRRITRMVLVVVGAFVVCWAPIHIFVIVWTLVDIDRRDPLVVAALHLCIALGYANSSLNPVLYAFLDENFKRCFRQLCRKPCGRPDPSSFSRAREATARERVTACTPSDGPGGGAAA
UniProt P35372, whole entry, looked up: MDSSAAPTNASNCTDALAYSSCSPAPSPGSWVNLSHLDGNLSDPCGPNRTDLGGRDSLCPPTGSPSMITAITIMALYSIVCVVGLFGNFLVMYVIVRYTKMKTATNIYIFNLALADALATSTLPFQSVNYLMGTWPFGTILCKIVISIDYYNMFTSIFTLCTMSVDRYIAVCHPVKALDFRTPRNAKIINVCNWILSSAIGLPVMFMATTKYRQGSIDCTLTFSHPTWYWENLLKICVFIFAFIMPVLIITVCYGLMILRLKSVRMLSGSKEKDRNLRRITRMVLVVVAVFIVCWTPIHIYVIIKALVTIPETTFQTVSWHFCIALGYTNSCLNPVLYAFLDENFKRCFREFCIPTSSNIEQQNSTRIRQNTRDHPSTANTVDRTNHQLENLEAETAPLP

Assay [1] has as its target Delta-type opioid receptor (Homo sapiens, UniProt P41143). The assay is described as follows: Percent inhibition against human Opioid receptor delta 1 using [3H]diprenorphine as radio ligand. Conditions: concentration not given here.
The target of a further assay is Mu-type opioid receptor (Homo sapiens, UniProt P35372). In words: Percent inhibition against human Opioid receptor mu 1 using [3H]diprenorphine as radio ligand. Also noted: concentration or dose not given beside the values. Conditions: concentration not given here.

As for `CN(C(=O)Cc1ccccc1)[C@H](CN1CCCC1)c1ccccc1`, the inhibition in assay [1] turned out to be 31%; on Mu-type opioid receptor it was 25%.
